Patent US20250123282A1, “METHODS FOR EVALUATION AND TREATMENT OF TYROSINE KINASE INHIBITOR (TKI)-RESISTANT ACUTE MYELOID LEUKEMIA” (LOMA LINDA UNIVERSITY, priority 2021, published 2025)

Tested on: MV4-11 cells
Assay: FACS time course of CD44+pBAD+ and Ki67+CD33+CD44+ populations in TKI-treated MV4-11
Assay type: cell-based, human
Conditions: MV4-11, 28 days after TKI treatment
Description: To follow the cell fate of TKI-treated MV4-11 and MOLM-14, culturing of blasts were continued by performing medium change every 2-3 days. […] The BAD protein is a pro-apoptotic member of the BCL-2 gene family, which is involved in initiating apoptosis. Dephosphorylated BAD is pro-apoptotic by binding BCL-2 and inactivating BCL-2, while phosphorylated BAD (pBAD) is anti-apoptotic by leaving BCL-2 free to inhibit BAX-triggered apoptosis.
Small Molecular Inhibitors and in vitro & ex vivo Treatment. […] The dose of 80 nM for the four TKIs was selected based on their dose-dependent cytotoxicity in previous reports. […]
Flow Cytometry (FACS). […] About 1×10^4˜10^6 cells in 100 μl FACS buffer (PBS containing 1% FBS and 0.05% sodium azide) were stained with various fluorescence-conjugated antibodies specific for the desired cell surface proteins at 4° C. for 30 min. The surface-stained cells were then fixed and permeabilized using the appropriate reagents (e.g. the BD Pharmingen Cytofix/Cytoperm buffer) and stained with different fluorescence-conjugated antibodies specific for the desired intracellular proteins at 4° C. for 2 hours in the permeabilizing buffer (e.g. the BD Perm/Wash buffer). […] Finally, the cells were washed twice in the permeabilizing buffer and twice in the FACS buffer before being analyzed on the BD FACSAria II. […]

Compound: CNC(=O)c1cc(Oc2ccc(NC(=O)Nc3ccc(Cl)c(C(F)(F)F)c3)cc2)ccn1 [SORA, Sorafenib]
- population of viable CD44+pBAD+ cells: 1.05%
